Data as given in US6342503B1, “1N-alkyl-n-arylpyrimidinamines and derivatives thereof” (DuPont Pharmaceuticals Company, priority 1993, dated 2002).

Chains of the proteins cited; added tags and fusions are not shown. Residues count along the entry.
UniProt P35353, 24-415 limits assumed: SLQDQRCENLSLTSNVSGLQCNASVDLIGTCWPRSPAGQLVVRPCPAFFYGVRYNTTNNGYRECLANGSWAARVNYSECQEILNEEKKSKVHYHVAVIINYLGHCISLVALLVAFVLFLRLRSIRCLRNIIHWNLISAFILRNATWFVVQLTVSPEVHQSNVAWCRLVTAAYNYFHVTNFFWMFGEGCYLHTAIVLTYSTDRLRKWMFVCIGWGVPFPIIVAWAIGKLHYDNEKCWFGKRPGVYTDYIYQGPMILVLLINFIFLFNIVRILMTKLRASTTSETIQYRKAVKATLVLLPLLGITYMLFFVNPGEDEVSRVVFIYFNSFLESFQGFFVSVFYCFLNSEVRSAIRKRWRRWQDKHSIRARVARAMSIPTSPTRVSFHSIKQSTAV

Target: CRF receptor (Rattus norvegicus, UniProt P35353)
Assay: In vitro CRF receptor binding assay (competition with [125I] ovine CRF, rat cortex membranes)
Conditions: read-out: Inhibition Ki, 2 h at 22° C., Ki classes

`CCN(c1nc(C)cc(OCCN2CCOCC2)n1)c1ccc(C(C)C)cc1Br` was tested. Which Ki did it give?
The Ki was < 0.5 µM.

Which Ki does the source give for `COc1cc(OC)c(Nc2nc(C)cc(C)n2)cc1Br` here?
The Ki was 2 to 10 µM.

Which Ki does the source give for `CCN(c1nc(C)cc(COCc2cccc(OC)c2)n1)c1ccc(C(C)C)cc1Br` here?
Its Ki is < 0.5 µM.

Which Ki does the source give for `CCN(c1nc(C)cc(Cn2ccnc2)n1)c1ccc(C(C)C)cc1Br` here?
Its Ki is < 0.5 µM.

`CCN(c1nc(C)cc(C(=O)c2ccc3[nH]ccc3c2)n1)c1ccc(C(C)C)cc1Br` was tested. Which Ki did it give?
The Ki was < 0.5 µM.

`CCN(c1nc(C)cc(C(=O)N(C)Cc2ccco2)n1)c1ccc(C(C)C)cc1Br` was tested. Which Ki did it give?
The Ki was < 0.5 µM.

With `CCN(c1nc(C)cc(C(=O)N2CCN(c3cnccn3)CC2)n1)c1ccc(C(C)C)cc1Br` as the compound, how does the Ki read?
The Ki was 2 to 10 µM.

With `COc1cc(Br)c(-n2ccc3c(C)cc(C)nc32)c(OC)c1` as the compound, how does the Ki read?
Its Ki is < 0.5 µM.

How did the Ki turn out when `CCN(c1nc(C)cc(C(O)(c2ccco2)c2ccco2)n1)c1ccc(C(C)C)cc1Br` was run?
The Ki was < 0.5 µM.

How did the Ki turn out when `Cc1cc(C)nc(N(C)c2ccc(C(F)(F)F)cc2Br)n1` was run?
Its Ki is 0.501 to 2 µM.

Which Ki does the source give for `CCN(c1nc(C)cc(NCc2cccnc2)n1)c1ccc(C(C)C)cc1Br` here?
Its Ki is < 0.5 µM.

For `Cc1cc(C)nc(N(C)c2ccc(Br)cc2Br)n1`, which Ki is on record?
The Ki was < 0.5 µM.

With `CCN(c1nc(C)cc(C(=O)c2ccc(F)cc2)n1)c1ccc(C(C)C)cc1Br` as the compound, how does the Ki read?
The Ki was < 0.5 µM.

With `CCN(c1nc(C)cc(OCC2CCCO2)n1)c1ccc(C(C)C)cc1Br` (stereo not drawn) as the compound, how does the Ki read?
The Ki was < 0.5 µM.

How did the Ki turn out when `CCN(c1nc(C)cc(C(F)(F)F)n1)c1ccc(C(C)C)cc1Br` was run?
The Ki was < 0.5 µM.

`CCN(c1nc(C)cc(OCC2CCCS2)n1)c1ccc(C(C)C)cc1Br` (single isomer, unassigned) was tested. Which Ki did it give?
Its Ki is < 0.5 µM.

How did the Ki turn out when `CCN(c1nc(C)cc(C(C)N)n1)c1ccc(C(C)C)cc1Br` (stereo not drawn) was run?
Its Ki is < 0.5 µM.

Which Ki does the source give for `COc1cc(Br)c(-n2cc(C#N)c3c(C)cc(C)nc32)c(OC)c1` here?
The Ki was < 0.5 µM.

`COc1cc(Br)c(N(c2nc(C)nc(N3CCOCC3)n2)C(C)C)c(OC)c1` was tested. Which Ki did it give?
Its Ki is < 0.5 µM.

`CCN(c1nc(C)cc(C(C)c2nn[nH]n2)n1)c1ccc(C(C)C)cc1Br` (stereo not drawn) was tested. Which Ki did it give?
The Ki was < 0.5 µM.

For `CCN(c1nc(C)cc(C(O)(c2ccncc2)c2ccncc2)n1)c1ccc(C(C)C)cc1Br`, which Ki is on record?
The Ki was < 0.5 µM.

`CCN(c1nc(C)cc(C(C)=O)n1)c1ccc(C(C)C)cc1Br` was tested. Which Ki did it give?
Its Ki is < 0.5 µM.

`CCN(c1nc(C)cc(C(O)c2cccnc2)n1)c1ccc(C(C)C)cc1Br` (stereo not drawn) was tested. Which Ki did it give?
Its Ki is < 0.5 µM.

For `CCN(c1nc(C)cc(C(=O)N2CCC(=O)CC2)n1)c1ccc(C(C)C)cc1Br`, which Ki is on record?
The Ki was < 0.5 µM.

With `CCN(c1nc(C)cc(N2CCC(O)CC2)n1)c1ccc(C(C)C)cc1Br` as the compound, how does the Ki read?
The Ki was < 0.5 µM.

For `CCN(c1nc(C)cc(C(O)(c2ccc(OC)cc2)c2cccnc2)n1)c1ccc(C(C)C)cc1Br` (stereo not drawn), which Ki is on record?
Its Ki is < 0.5 µM.

Same assay, conditions: read-out: Inhibition Ki, 2 h at 22° C., Ki classes, tested form: HCl

For `CCN(c1nc(C)cc(-c2cc[nH]n2)n1)c1ccc(C(C)C)cc1Br`, which Ki is on record?
Its Ki is 0.501 to 2 µM.

How did the Ki turn out when `CCN(c1nc(C)cc(C)n1)c1ccc(OC)nc1Br` was run?
The Ki was < 0.5 µM.

How did the Ki turn out when `CCN(c1nc(C)cc(C)n1)c1ccc(C(C)C)cc1I` was run?
The Ki was < 0.5 µM.

Which Ki does the source give for `CCN(c1nc(C)nc(N2CCOCC2)n1)c1ccc(OC)nc1Br` here?
The Ki was < 0.5 µM.

`CCN(c1nc(C)cc(C)n1)c1ccc(C(F)(F)F)cc1Br` was tested. Which Ki did it give?
Its Ki is < 0.5 µM.

Which Ki does the source give for `Cc1cc(C)nc(N(C)c2ccc(C(C)C)cc2Br)c1` here?
Its Ki is 2 to 10 µM.

`CCN(c1nc(C)cc(NCCc2cnc[nH]2)n1)c1ccc(C(C)C)cc1Br` was tested. Which Ki did it give?
Its Ki is < 0.5 µM.

`CCc1cc(CC)nc(N(CC)c2ccc(C(C)C)cc2Br)n1` was tested. Which Ki did it give?
Its Ki is < 0.5 µM.

`CCOCCc1ccc(N(CC)c2nc(C)cc(C)n2)c(Br)c1` was tested. Which Ki did it give?
The Ki was < 0.5 µM.

`C=CCN(c1nc(C)cc(C)n1)c1ccc(C(C)C)cc1Br` was tested. Which Ki did it give?
Its Ki is < 0.5 µM.

Which Ki does the source give for `CCN(c1ccc(OC)nc1)c1nc(C)cc(C)n1` here?
The Ki was 0.501 to 2 µM.

How did the Ki turn out when `CCN(c1nc(C)cc(C)n1)c1ccc(C(C)(C)C)cc1Br` was run?
The Ki was < 0.5 µM.

How did the Ki turn out when `C=CCN(c1nc(C)cc(C)n1)c1ccc(CCCC)cc1Br` was run?
The Ki was < 0.5 µM.

For `Cc1cc(C)nc(N(CC#N)c2ccc(C(C)C)cc2Br)n1` [compound 32], which Ki is on record?
The Ki was 2 to 10 µM.

Which Ki does the source give for `CCN(c1nc(C)cc(CN2CCC(=O)CC2)n1)c1ccc(C(C)C)cc1Br` here?
The Ki was < 0.5 µM.

For `CCN(c1nc(C)cc(C)n1)c1ncc(C)cc1Br`, which Ki is on record?
The Ki was 2 to 10 µM.
